Measured values taken from ChEMBL document CHEMBL5131383, “Structure-based design, synthesis, and evaluation of inhibitors with high selectivity for PARP-1 over PARP-2” (Eur J Med Chem, 2022).

Species: Homo sapiens
Test: Selectivity index, ratio of IC50 for human PARP2 to IC50 for human PARP1

Ratio IC50 | SMILES
64.5 | NC1CCN(Cc2cccc(-c3[nH]c4cc(F)cc5c4c3CCNC5=O)c2)CC1
18.4 | CCN(CC)Cc1ccc(-c2[nH]c3cc(F)cc4c3c2CCNC4=O)cc1
10.3 | NC1CCN(Cc2ccc(-c3[nH]c4cc(F)cc5c4c3CCNC5=O)cc2)CC1
4.4 | C[C@@H]1CN(Cc2ccc(-c3[nH]c4cc(F)cc5c4c3CCNC5=O)cc2)CCN1
